Yeast mating assay B: variants of the scFv Ab-14

Target: peptide PDVDLGDISGINAS, taken from heptad repeat 2 (HR2) of SARS-CoV-2 spike.

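Designed CDR sequences, proposed from the first random library and measured here. Their group label is 14L_GP_HC (GP: Gaussian process model; HC: hill climbing; a sequence that several methods proposed may carry one label only). The scFvs were displayed on barcoded MATa yeast, the peptide on MATalpha yeast. Pairs that bind mate more often; barcode pairs of the diploids are counted by sequencing. The ratio of observed to expected reads was calibrated, replicate by replicate, on BCL2-family standards whose Kd was known from biolayer interferometry. There are six technical replicates.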

The variants keep the heavy chain, the linker and the frameworks of Ab-14 (scFv order VH, a 15-residue (Gly4Ser)3 linker, VL).
VH: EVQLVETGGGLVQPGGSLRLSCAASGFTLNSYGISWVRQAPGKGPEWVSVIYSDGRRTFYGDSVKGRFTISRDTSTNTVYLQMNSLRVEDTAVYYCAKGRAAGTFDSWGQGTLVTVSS
VL: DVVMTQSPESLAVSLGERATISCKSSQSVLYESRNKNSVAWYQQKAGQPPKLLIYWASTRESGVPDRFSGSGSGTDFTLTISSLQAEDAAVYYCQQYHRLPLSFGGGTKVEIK

Substitutions are numbered in sequence along the VL above, starting at 1 (not Kabat).
Scale: log10 of Kd in nM, estimated from mating counts; low values are strong binders.
Averages over replicates are reported, and they cover detected replicates only.
The range of this assay differs from that of the first round, and the authors advise against merging the two.

{"changes": "S25M+Y31M+S33H+K36S+W56D+T59L", "log10 Kd, replicates": "-0.15 / 0.19 / -0.05 / -0.36 / -0.29 / -0.04", "mean log10 Kd (nM)": "-0.12", "signal with controls": "2/18 (2.23)"}
{"changes": "S25V+S28E+V29M+W56D", "log10 Kd, replicates": "-0.12 / -0.48 / -0.52 / -0.61 / -0.60 / -0.13", "mean log10 Kd (nM)": "-0.41", "signal with controls": "0/18"}
{"changes": "S25L+Q27L+Y31Q+W56N", "log10 Kd, replicates": "-0.07 / -0.25 / -0.12 / -0.18 / -0.26 / -0.11", "mean log10 Kd (nM)": "-0.16", "signal with controls": "1/18 (2.46)"}
{"changes": "K24F+S26L+K36F+W56N+S62D", "log10 Kd, replicates": "0.89 / 0.73 / 0.64 / 0.58 / 0.46 / 0.63", "mean log10 Kd (nM)": "0.65", "signal with controls": "0/18"}
{"changes": "S25L+V29F+W56G+Q96A", "log10 Kd, replicates": "0.02 / 0.15 / -0.04 / -0.13 / -0.10 / 0.08", "mean log10 Kd (nM)": "0.00", "signal with controls": "3/18 (2.79)"}
{"changes": "S25L+V29W+S33D+W56G", "log10 Kd, replicates": "-0.25 / -0.27 / -0.36 / -0.49 / -0.16 / -0.28", "mean log10 Kd (nM)": "-0.30", "signal with controls": "0/18"}
{"changes": "K24Y+Q27I+V29Y+R34P+W56E+S62R", "log10 Kd, replicates": "0.78 / 0.80 / 0.59 / 0.69 / 0.48 / 0.64", "mean log10 Kd (nM)": "0.66", "signal with controls": "0/18"}
{"changes": "K24H+S25L+Q27E+W56N+S103N", "log10 Kd, replicates": "-0.11 / 0.06 / 0.20 / 0.11 / 0.00 / 0.11", "mean log10 Kd (nM)": "0.06", "signal with controls": "0/18"}
{"changes": "Q27I+V29Q+R34G+W56N", "log10 Kd, replicates": "-0.28 / -0.26 / -0.56 / -0.33 / -0.21 / 0.05", "mean log10 Kd (nM)": "-0.26", "signal with controls": "0/18"}
{"changes": "S26D+N35D+W56H+S62D", "log10 Kd, replicates": "0.50 / 0.44 / 0.20 / 0.22 / 0.27 / 0.40", "mean log10 Kd (nM)": "0.34", "signal with controls": "3/18 (3.16)"}
{"changes": "Y31A+E32Q+W56D", "log10 Kd, replicates": "0.02 / -0.05 / -0.02 / -0.03 / -0.22 / -0.13", "mean log10 Kd (nM)": "-0.07", "signal with controls": "0/18"}
{"changes": "S25F+S28W+S33G+N35T+W56N", "log10 Kd, replicates": "0.17 / 0.42 / 0.16 / 0.01 / 0.23 / 0.59", "mean log10 Kd (nM)": "0.26", "signal with controls": "2/18 (1.81)"}
{"changes": "Q27D+V29Y+W56A", "log10 Kd, replicates": "-0.09 / -0.30 / -0.30 / -0.29 / -0.39 / -0.17", "mean log10 Kd (nM)": "-0.26", "signal with controls": "4/18 (2.74)"}
{"changes": "K24H+S25L+W56N+A57G+S62V", "log10 Kd, replicates": "-0.55 / -0.43 / -0.71 / -0.78 / -0.69 / -0.59", "mean log10 Kd (nM)": "-0.63", "signal with controls": "0/18"}
{"changes": "L30K+Y31P+W56D", "log10 Kd, replicates": "0.55 / 0.56 / 0.36 / 0.47 / 0.50 / 0.66", "mean log10 Kd (nM)": "0.52", "signal with controls": "2/18 (2.98)"}
{"changes": "S25L+S26C+V29Q+W56H+S62D", "log10 Kd, replicates": "-0.10 / -0.10 / -0.42 / -0.31 / -0.12 / -0.16", "mean log10 Kd (nM)": "-0.20", "signal with controls": "2/18 (2.30)"}
{"changes": "Q27I+V29A+K36E+W56E+S62Q", "log10 Kd, replicates": "1.63 / 0.98 / 1.20 / 1.01 / 0.80 / 1.02", "mean log10 Kd (nM)": "1.11", "signal with controls": "2/18 (2.89)"}
{"changes": "Q27I+V29Y+Y31E+W56E+S62G", "log10 Kd, replicates": "0.14 / 0.00 / 0.13 / 0.07 / 0.10 / 0.42", "mean log10 Kd (nM)": "0.14", "signal with controls": "1/18 (3.09)"}
{"changes": "S25F+N35Q+W56N+S58V+S62T", "log10 Kd, replicates": "0.01 / -0.08 / -0.04 / -0.24 / -0.06 / -0.05", "mean log10 Kd (nM)": "-0.08", "signal with controls": "1/18 (2.13)"}
{"changes": "S25L+S26M+V29E+W56H+T59L+S62D", "log10 Kd, replicates": "0.32 / 0.09 / 0.01 / -0.02 / 0.12 / 0.17", "mean log10 Kd (nM)": "0.11", "signal with controls": "1/18 (3.24)"}
{"changes": "S26L+V29D+W56H+S62D+R99Q", "log10 Kd, replicates": "-0.22 / -0.19 / -0.40 / -0.44 / -0.32 / -0.28", "mean log10 Kd (nM)": "-0.31", "signal with controls": "0/18"}
{"changes": "S25V+V29D+W56H+S62Q", "log10 Kd, replicates": "0.17 / -0.31 / -0.30 / -0.20 / -0.26 / 0.09", "mean log10 Kd (nM)": "-0.14", "signal with controls": "0/18"}
{"changes": "S25F+S28G+W56G", "log10 Kd, replicates": "0.31 / -0.03 / -0.17 / 0.02 / -0.06 / -0.04", "mean log10 Kd (nM)": "0.00", "signal with controls": "0/18"}
{"changes": "S25F+S26Q+V29Q+L30E+W56H", "log10 Kd, replicates": "0.32 / 0.25 / 0.35 / 0.48 / 0.17 / 0.19", "mean log10 Kd (nM)": "0.29", "signal with controls": "1/18 (3.44)"}

The closing 4 entries, repeated:

{"changes": "S26L+V29D+W56H+S62D+R99Q", "log10 Kd, replicates": "-0.22 / -0.19 / -0.40 / -0.44 / -0.32 / -0.28", "mean log10 Kd (nM)": "-0.31", "signal with controls": "0/18"}
{"changes": "S25V+V29D+W56H+S62Q", "log10 Kd, replicates": "0.17 / -0.31 / -0.30 / -0.20 / -0.26 / 0.09", "mean log10 Kd (nM)": "-0.14", "signal with controls": "0/18"}
{"changes": "S25F+S28G+W56G", "log10 Kd, replicates": "0.31 / -0.03 / -0.17 / 0.02 / -0.06 / -0.04", "mean log10 Kd (nM)": "0.00", "signal with controls": "0/18"}
{"changes": "S25F+S26Q+V29Q+L30E+W56H", "log10 Kd, replicates": "0.32 / 0.25 / 0.35 / 0.48 / 0.17 / 0.19", "mean log10 Kd (nM)": "0.29", "signal with controls": "1/18 (3.44)"}

The authors' rule: three or more of the six replicates give a measured affinity, fewer mean a poor binder.
The parent sequence was in this pool as ten entries: three were never detected, three once, and four in most replicates, with averages from 0.34 to 2.37.
Three control strains display no target. For all light chain designs, 4% of the pairings with them gave a signal, with a median of 2.64 and one signal in twenty below 1.59, so weak values seen in few replicates may be background. Also given: how often the same scFv was detected with the empty control strains, with their mean in brackets.

Reference: Li et al. 2023, doi:10.1038/s41467-023-39022-2. File: FLAb, binding data.